# Assay results from patent publication US8748130B2, “Human papillomavirus / Ii-Key hybrids and methods of use” (priority 2008, dated 2014).
# System: HLA-DR4 molecules
# Assay: Binding of HA-tagged HPV peptides to HLA-DR4+ H9 cells (flow cytometry, anti-HA antibody)
# Design: species or system human
# Settings: 1x10^6 H9 cells, one hour, no peptide is 1.83%
# Description: One million HLA-DR4+H9 cells were incubated with the indicated concentrations of the HPV1-HA tagged peptide HPV7 (◯) or the HPV4-HA tagged peptide HPV17 (□). After analysis by flowcytometry, the percentage of gated cells was plotted against the peptide concentration. The gate was set such that about 98% cells untreated with peptide fell out of the gate.
# In order to reveal possible mechanisms for the increased potency of the HPV4 hybrid peptide, the binding affinity of HPV1 compared to HPV4 in HLA-DR4+H9 lymphoma cells was determined. Two peptides (HPV7 and HPV17) linked to an HA tag, allowing the monitoring of binding using an anti-HA monoclonal antibody, were synthesized. Specifically, HPV7 [SEQ ID NO.: 12] consisted of HPV1 extended at the C-terminus with a two-glycine residue spacer and an HA tag (YPYDVPDYA [SEQ ID NO.: 15]), while HPV 17 [SEQ ID NO.: 13] represented HPV4 similarly extended at the C-terminus with a two-glycine residue spacer and an HA tag. Different concentrations of the two peptides were first incubated with 1×10^6 HLA-DR4+ human lymphoma cells (H9 cells) for one hour in culture medium. The binding efficiency was monitored by staining H9 cells with an anti-HA tag monoclonal antibody followed by a FITC-labeled secondary antibody.
Substance,percentage of positive gated cells (1 nmole peptide),percentage of positive gated cells (10 nmole peptide),percentage of positive gated cells (25 nmole peptide),percentage of positive gated cells (50 nmole peptide),percentage of positive gated cells (100 nmole peptide)
"lheymldlqpettdl ggypydvpdya (LHEYMLDLQPETTDLGGYPYDVPDYA; GG spacer and HA tag) [HPV7, HPV1 extended at the C-terminus with a two-glycine residue spacer and an HA tag]",3.88%,7.42%,12.2%,25.62%,39.49%
"LRMK-ava- eymldlqpettdl ggypydvpdya [HPV17, HPV4 extended at the C-terminus with a two-glycine residue spacer and an HA tag]",5.99%,12.56%,24.88%,41.32%,44.69%
